Drawing on PubChem BioAssay AID485344 (National Center for Advancing Translational Sciences (NCATS), 2010), this text covers inhibition for 21 compounds.

Sequences of proteins named here, by UniProt entry; tags and fusion partners are left off.
UniProt P14416, whole entry: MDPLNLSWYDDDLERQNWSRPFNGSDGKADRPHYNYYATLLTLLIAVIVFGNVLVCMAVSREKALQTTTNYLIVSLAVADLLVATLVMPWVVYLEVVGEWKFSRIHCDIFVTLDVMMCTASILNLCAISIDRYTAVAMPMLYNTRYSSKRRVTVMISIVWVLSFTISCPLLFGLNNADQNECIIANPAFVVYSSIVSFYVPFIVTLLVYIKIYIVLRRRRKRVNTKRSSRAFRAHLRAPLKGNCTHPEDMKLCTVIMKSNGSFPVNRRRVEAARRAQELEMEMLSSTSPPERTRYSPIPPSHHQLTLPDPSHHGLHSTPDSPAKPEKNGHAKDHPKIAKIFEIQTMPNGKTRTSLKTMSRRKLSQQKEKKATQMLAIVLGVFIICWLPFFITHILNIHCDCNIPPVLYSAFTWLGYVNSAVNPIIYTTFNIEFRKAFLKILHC

Each structure is given as a SMILES string. Only a part is listed here, and it is no random draw. Some tests of the compounds listed are not included; inactive here does not mean inactive elsewhere. Activity calls are given as the source filed them. No stated cut-off is given here; in the data, active means inhibition above about 30%; inactive means below that, where a call was filed.

For orientation: inhibition means the relative decrease from the control value, in per cent.

For the experiment, the target named is D(2) dopamine receptor (Homo sapiens) (UniProt P14416). Description: HTS Assay for Allosteric Antagonists of the Human D2 Dopamine Receptor: Primary Screen for Antagonists. Further: 0% is about no effect. Conditions: HEK293 TREx D2 cells, calcium flux, dopamine EC80; at 10 µM; stronger effect = higher value. The source says:
NIH Chemical Genomics Center [NCGC] NIH Molecular Libraries Probe Centers Network [MLPCN] MLPCN Grant: NS064831-01 Assay Submitter (PI): David Sibley Dopamine receptors (DARs) are involved in the etiology and/or therapy of a number of neuropsychiatric and endocrine disorders. For instance, all receptor-based antiparkinsonian drugs work via stimulating the D2 DAR subtype whereas all FDA-approved antipsychotic agents are antagonists of this receptor. […] There are three different types of allosteric modulators that we are seeking, two of which will stimulate or augment receptor signaling, allosteric agonists and potentiators, while the third, allosteric antagonists, will attenuate receptor signaling. The present primary screening assay measures compound antagonism after an EC80 addition of dopamine by tracking calcium flux in a […], inducible Hek293 Trex D2 cell line.
Freshly passaged cells are plated in 1536 well black, clear bottom plates at a density of 4000 cells/well in 3 ul of complete media containing 1x tetracycline inducer. After an overnight incubation at 30 C in 5% CO2, cells are loaded with 2 ul of the no wash Calcium Assay Kit (ABD Bioquest) and incubated at room temperature for 30 to 90 minutes. Agonist read: A 10 cycle (1 second/cycle) baseline measurement is taken and then the FDSS online 1536 pintool delivers 23 nl of compound library (as well as dopamine controls) to the plate. The plate is measured for kinetically at 1 cycle/sec for 180 seconds. Following the 180 second read, 1 ul of an EC80 (negative modulation assay) is delivered by an onboard pipette head. Measurements are taken kinetically for an additional 180 seconds.
A general note: Calcium flux is commonly read through the fluorescence of an indicator in the cells.
For `O=C(OC1CN2CCC1CC2)C(CO)(c1ccccc1)c1ccccc1` (stereo unspecified), the inhibition is inactive: 11.9%.
As to `CN(C)c1cccc(C(=O)NCC2(N(C)C)CCCCC2)c1`, the inhibition was inactive: -7.33%.
The same measure for `COc1ccc(Br)c(C(=O)NCC2(N3CCCCC3)CCCCC2)c1`: inactive: 19.5%; for `COc1cc(C(=O)NCC2(N(C)C)CCCCC2)c([N+](=O)[O-])cc1OC`: inactive: 2.1%; for `CN(C)C1(CNC(=O)c2ccc(Br)cc2)CCCCC1`: inactive: 0.845%.
The same measure for `O=C(NCC1(N2CCCCC2)CCCCC1)c1cccc(Cl)c1`: inactive: 10.6%.
Turning to `COc1ccc(Cl)cc1C(=O)NCC1(N(C)C)CCCCC1`, the inhibition was inactive: -35.3%.
Take `COc1cccc(C(=O)NCC2(N3CCCCC3)CCCCC2)c1`: the inhibition was inactive: 9.07%.
In the case of `CN(C)C1CCCC1OC(=O)C(O)(c1ccccc1)c1ccccc1` (stereo unspecified) it was inactive: -4.47%.
As to `CN(C)c1ccc(C(=O)NCC2(N(C)C)CCCCC2)cc1`, the inhibition was inactive: 0.0085%.
With `Cc1ccccc1C(=O)NCC1(N2CCCCC2)CCCCC1`, the inhibition was inactive: -14.1%.
As to `Cc1cc(C(=O)NCC2(N3CCCCC3)CCCCC2)ccc1[N+](=O)[O-]`, the inhibition is inactive: -2.99%.
Take `CCN1CCCC(OC(=O)C2(O)c3ccccc3C=Cc3ccccc32)C1` (stereo unspecified): the inhibition is inactive: -4.98%.
With `COc1ccc(C(=O)NCC2(N(C)C)CCCCC2)cc1`, the inhibition is inactive: 4.21%.
`O=C(NCC1(N2CCCCC2)CCCCC1)c1cc(F)c(F)cc1Cl`: the inhibition was inactive: 2.24%.
The same measure for `CN1[C@@H]2CC[C@H]1CC(OC(=O)C(O)(c1ccccc1)c1ccccc1)C2` (stereo partly specified): inactive: 6.74%.
The same measure for `O=C(NCC1(N2CCCCC2)CCCCC1)c1cc([N+](=O)[O-])ccc1Cl`: inactive: -16.1%; for `Cc1ccc(C(=O)NCC2(N3CCCCC3)CCCCC2)cc1`: inactive: 5.46%.
As for `CC(C)N1C(=O)CC2(CCN(CCOC(=O)C(O)(c3ccccc3)c3ccccc3)CC2)C1=O`, the inhibition was inactive: 7.35%.
`COc1cc(SC)ccc1C(=O)NCC1(N(C)C)CCCCC1`: the inhibition is inactive: 6.17%.
As to `CCN(CC)CC(C)C(C)OC(=O)C(O)(c1ccccc1)c1ccccc1` (stereo unspecified), the inhibition is inactive: -13.2%.
